{"sequences": {"note": "Chains of the proteins cited; added tags and fusions are not shown.", "UniProt P25099, whole entry": "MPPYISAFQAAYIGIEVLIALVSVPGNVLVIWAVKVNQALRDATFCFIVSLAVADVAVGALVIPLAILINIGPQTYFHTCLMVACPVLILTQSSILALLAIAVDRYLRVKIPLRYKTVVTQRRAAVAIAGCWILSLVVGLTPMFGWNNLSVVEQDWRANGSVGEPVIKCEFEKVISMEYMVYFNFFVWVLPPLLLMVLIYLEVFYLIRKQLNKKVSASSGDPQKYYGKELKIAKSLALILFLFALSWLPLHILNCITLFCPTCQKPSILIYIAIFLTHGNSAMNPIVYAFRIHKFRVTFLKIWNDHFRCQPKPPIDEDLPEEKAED"}, "source": "ChEMBL document CHEMBL1132635", "about": "“N6,5'-Disubstituted adenosine derivatives as partial agonists for the human adenosine A3 receptor” (J Med Chem, 1999)", "biological_target": "Adenosine receptor A1 (Rattus norvegicus, UniProt P25099)", "experiment": "Displacement of [3H]DPCPX from rat cortical membranes Adenosine A1 receptor", "type": "cell membranes, Membrane"}
{"smiles": "OC[C@H]1O[C@@H](n2cnc3c(NCc4ccccc4)ncnc32)[C@H](O)[C@@H]1O", "note": "[N6-BENZYLADENOSINE]", "values": [{"measurement": "Ki", "value": 4.45, "unit": "µM"}]}
